Amino acid sequences for entries named in this document (tags omitted). Residues count along the entry.
UniProt P98170, 241-356 limits assumed: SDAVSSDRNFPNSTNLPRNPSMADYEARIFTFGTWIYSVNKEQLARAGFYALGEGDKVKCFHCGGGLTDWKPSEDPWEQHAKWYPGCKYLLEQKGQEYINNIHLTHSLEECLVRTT

This assay deals with XIAP-BIR3 (Homo sapiens, UniProt P98170). Description: XIAP BIR3 fluorescence polarization binding assay (competition with AbuRPF-K(5-Fam)-NH2). As to conditions: read-out: KD Range; 5 nM AbuRPF-K(5-Fam)-NH2, 40 nM XIAP-BIR3, pH 7.5; Kd calculated from measured IC50. The protocol: Binding constants (Kd) were measured using fluorescence polarization as described by Zaneta Nikolovska-Coleska, Renxiao Wang, Xueliang Fang, Hongguang Pan, York Tomita, Peng Li, Peter P. Roller, Krzysztof Krajewski, Naoyuki Saito, Jeanne Stuckey and Shaomeng Wang, in “Development and Optimization of a Binding Assay for the XIAP BIR3 Domain Using Fluorescence Polarization”, Analytical Biochemistry 2004, 332, 261-273). Briefly, test IAP binding compounds at various concentrations for binding measurements were mixed with 5 nM fluorescently labeled peptide (AbuRPF-K(5-Fam)-NH2) and 40 nM of XIAP-BIR3 for 15 minutes at room temperature in 100 μL of 0.1M Potassium Phosphate buffer, pH 7.5 containing 100 μg/ml bovine γ-globulin. Following incubation, the polarization values (mP) were measured on a Victor^2V using a 485 nm excitation filter and a 520 nm emission filter. IC50 values were determined from the plot using nonlinear least-squares analysis using GraphPad Prism. The Kd values of competitive inhibitors were calculated using the equation described by Zaneta Nikolovska-Coleska et al. based upon the measured IC50 values, the Kd value of the probe and XIAP BIR3 complex, and the concentrations of the protein and probe in the competition assay. In various examples of IAP binding or IAP binding cargo molecules ranges for Kd values: Group A: Kd<0.1 μM; Group B: Kd=0.1-1 μM; Group C: Kd=1-10 μM; Group D: Kd>10 μM.
Take `CC(C)[C@H](NC(=O)[C@H](C)N)C(=O)N1C[C@@H](Oc2ccccc2)C[C@H]1CCCOc1ccccc1-c1ccccc1`: the Kd was 100 to 1000 nM.
For `C#CCN[C@@H](C)C(=O)N[C@H](C(=O)N1CCC[C@H]1Cc1coc2ccccc12)C(C)C`, the Kd was over 10000 nM.
For the molecule `CC(C)N[C@@H](C)C(=O)N[C@H](C(=O)N1CCC[C@H]1Cc1coc2ccccc12)C(C)C`, the dissociation constant Kd is 1000 to 10000 nM.
On to `CC(C)[C@H](NC(=O)[C@H](C)N)C(=O)N1C[C@@H](Oc2ccccc2)C[C@H]1/C=C/COc1ccccc1C1CCCC1`, for which the Kd is 1000 to 10000 nM.
Next, `CC(C)[C@H](NC(=O)[C@H](C)N)C(=O)N1CCC[C@H]1Cc1coc2ccc(OCc3ccccc3)cc12`: 100 to 1000 nM.
Take `CN[C@@H](C)C(=O)N[C@H](C(=O)N1CCC[C@H]1Cc1coc2ccc(C)cc12)C(C)C`: the dissociation constant (Kd) was under 100 nM.
On to `CC(C)[C@H](NC(=O)[C@@H]1CN1)C(=O)N1CCC[C@H]1Cc1coc2ccccc12`, for which the Kd was over 10000 nM.
Consider `CN[C@@H](C)C(=O)N[C@H](C(=O)N1CCC[C@H]1Cc1coc2ccc(F)cc12)C(C)C`, for which the Kd was under 100 nM.
With `CN[C@@H](C)C(=O)N[C@H](C(=O)N1CCC[C@H]1Cc1c[nH]c2c(OCc3ccccc3)cccc12)C(C)C` the figure was 1000 to 10000 nM; with `CC(C)[C@H](NC(=O)[C@@H]1CCN1)C(=O)N1CCC[C@H]1Cc1coc2ccccc12`, 100 to 1000 nM.
With `CC(C)[C@H](NC(=O)[C@H](C)N)C(=O)N1CCC[C@H]1COc1cccc2c1CCCC2` the figure was 100 to 1000 nM; with `CC(C)[C@H](NC(=O)[C@H](C)N)C(=O)N1CCC[C@H]1Cc1c(-c2ccccc2)oc2ccccc12`, 100 to 1000 nM.

As usually defined, the Kd is the concentration at which binding is half-saturated.

Source of the values: patent US9840464B2, “IAP binding compounds” (TetraLogic Birinapant UK Ltd., priority 2004, dated 2017).
